# Tests used:
# [1] = guanidinium chloride salt
# [2] = mice C57BL/6, ip, 93.4 mg kg^−1 (HCl salt), 30 minutes after injection
Substance,Solubility in aqueous solutions [1],Tissue distribution (fluorescence in organ sections) [2]
"1-O-[20-O—(N-succinyl-6-aminohexanoyl)camptothecin]-2,3,4,5-tetra-O—(N-{bis-[3-(N′,N″-bis-(tert-butoxycarbonyl)-guanidino)-propyl]}-6-aminohexanoyl)-6-O-(6-aminohexanoyl)-D-sorbitol⋅9HCl [compound (9)]",high solubility in aqueous solutions,–
"1-O-[20-O—(N-succinyl-6-aminohexanoyl)camptothecin]-2,3,4,5-tetra-O—(N-{bis-[3-N′,N″-bis-(tert-butoxycarbonyl)-guanidino)-propyl]}-6-aminohexanoyl)-6-O-[6-(fluoresceinyl-5-thioureido)-hexanoyl]-D-sorbitol⋅8HCl [compound (10)]",–,"observed mainly in the kidney, the lung, the spleen, and is also observed even in the brain"

# — patent publication US11464864B2, “Drug-bound compound and use thereof” (priority 2018, dated 2022)
